Assay results as given in article PMC7994190.

Biological target: Recombinant mouse VDAC1 (mouse) (UniProt Q60932)

Recombinant WT α-synuclein (from UniProt P37840 1-140) (natural protein)
reversal potential of the αSyn-blocked state, 30/150 mM CaCl2 (cis/trans): 8.9 mV
reversal potential of the αSyn-blocked state, 100/500 mM CaCl2 (cis/trans): -27 mV
reversal potential of the αSyn-blocked state, 150/30 mM CaCl2 (cis/trans): -5.5 mV
reversal potential of the αSyn-blocked state, 300/60 mM KCl (cis/trans): -17.7 mV
reversal potential of the αSyn-blocked state, 500/100 mM CaCl2 (cis/trans): 24.8 mV
